Earlier results in patent US7179800B2 (priority 2002, dated 2007).

By UniProt entry, the sequences of proteins in these tests, tags left out.
UniProt P34972, whole entry: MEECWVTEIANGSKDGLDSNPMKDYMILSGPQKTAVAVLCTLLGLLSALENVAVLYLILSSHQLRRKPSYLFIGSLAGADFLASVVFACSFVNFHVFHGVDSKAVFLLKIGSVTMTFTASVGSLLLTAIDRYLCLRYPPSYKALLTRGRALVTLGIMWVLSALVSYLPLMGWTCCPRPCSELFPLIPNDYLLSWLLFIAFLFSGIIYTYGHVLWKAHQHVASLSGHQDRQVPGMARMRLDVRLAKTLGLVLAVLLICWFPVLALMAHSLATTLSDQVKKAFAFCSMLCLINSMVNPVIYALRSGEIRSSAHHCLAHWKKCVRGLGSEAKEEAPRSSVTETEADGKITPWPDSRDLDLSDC

Target: T1, CB2 receptor (Homo sapiens, UniProt P34972)
T1 construct: expressed in transfected cells; host or cells: CHO cells, G418-selected transfected line
Conditions: values from Hanu et al 1999; ligand [3H]HU-243; cited from earlier work

Question: With `CCCCCCC(C)(C)c1cc(OC)c([C@@H]2C=C(CO)[C@@H]3C[C@H]2C3(C)C)c(OC)c1` [HU-308] as the molecule, how does the Ki read?
Answer: Its Ki is 23 ± 4 nM.
